In one experiment the target is α2AR-D4.4R (Homo sapiens, UniProt P08913+P21917). The experiment can be described thus: CODA-RET Gαi1 activation, α2AR-D4.4R heteromer. Format: cell-based. To be noted: cells pretreated with antagonist.
For the next experiment, the target named is α2AR-D4.7R (Homo sapiens, UniProt P08913+P21917). The experiment can be described thus: CODA-RET Gαi1 activation, α2AR-D4.7R heteromer. The class given is cell-based. The settings on record: cells pretreated with antagonist.

By UniProt entry, the sequences of proteins in these tests, tags left out.
UniProt P08913, whole entry: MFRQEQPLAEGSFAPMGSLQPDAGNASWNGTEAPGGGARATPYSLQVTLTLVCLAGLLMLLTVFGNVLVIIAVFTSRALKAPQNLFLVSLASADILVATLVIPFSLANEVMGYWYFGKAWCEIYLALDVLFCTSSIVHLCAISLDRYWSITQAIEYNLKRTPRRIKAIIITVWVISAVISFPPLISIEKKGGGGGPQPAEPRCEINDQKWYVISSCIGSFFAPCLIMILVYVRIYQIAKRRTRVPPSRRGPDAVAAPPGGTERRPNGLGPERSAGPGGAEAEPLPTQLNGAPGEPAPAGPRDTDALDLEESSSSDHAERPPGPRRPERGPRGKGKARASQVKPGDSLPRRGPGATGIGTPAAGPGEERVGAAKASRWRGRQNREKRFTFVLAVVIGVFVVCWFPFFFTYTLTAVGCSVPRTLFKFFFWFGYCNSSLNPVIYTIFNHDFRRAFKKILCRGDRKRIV
UniProt P21917, whole entry: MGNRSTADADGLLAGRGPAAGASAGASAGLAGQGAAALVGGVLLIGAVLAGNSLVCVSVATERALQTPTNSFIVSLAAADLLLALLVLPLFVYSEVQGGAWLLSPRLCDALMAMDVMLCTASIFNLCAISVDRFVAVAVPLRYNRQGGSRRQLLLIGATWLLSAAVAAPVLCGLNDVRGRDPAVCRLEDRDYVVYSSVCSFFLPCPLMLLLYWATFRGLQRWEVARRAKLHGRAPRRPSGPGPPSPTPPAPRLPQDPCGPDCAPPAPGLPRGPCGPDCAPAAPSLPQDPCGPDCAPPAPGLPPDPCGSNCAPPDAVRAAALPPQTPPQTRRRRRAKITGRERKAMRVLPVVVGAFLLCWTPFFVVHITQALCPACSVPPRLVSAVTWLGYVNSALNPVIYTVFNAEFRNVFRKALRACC

On to `Cl.Cl.Cl.Clc1ccc(N2CCN(Cc3c[nH]c4ncccc34)CC2)cc1` [L745,870, L-745,870 trihydrochloride], for which the “antagonist effect on NE- and DA-induced Gαi1 activation” value at α2AR-D4.4R was “decreased significantly the effect of DA and NE”; on α2AR-D4.7R it was “lack of antagonistic effects”.
